# Ab-91 heavy chain CDR variants: yeast mating affinities

Data: MIT Lincoln Laboratory AlphaSeq set, Engelhart et al. 2022, doi:10.1038/s41597-022-01779-4, as distributed in FLAb.

All variants were tested on one target, the spike HR2 peptide PDVDLGDISGINAS (SARS-CoV-2).

The variants keep the light chain, the linker and the frameworks of Ab-91 (scFv order VL, a 15-residue (Gly4Ser)3 linker, VH).
VL: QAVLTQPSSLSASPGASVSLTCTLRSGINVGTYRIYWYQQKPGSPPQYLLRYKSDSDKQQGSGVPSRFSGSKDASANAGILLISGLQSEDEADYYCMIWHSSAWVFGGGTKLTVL
VH: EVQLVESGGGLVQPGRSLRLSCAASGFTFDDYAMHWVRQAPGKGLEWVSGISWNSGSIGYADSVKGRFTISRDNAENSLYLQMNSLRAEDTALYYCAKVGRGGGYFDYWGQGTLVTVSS

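The starting antibody came from a phage panning campaign against this peptide. Variants in AAYL51 differ from the parent at up to three CDR positions; double and triple changes were sampled at random. Affinity was read by AlphaSeq, a pooled yeast mating assay with surface-displayed partners. Mating (16 h, 30 °C) was followed by selection of diploids and sequencing of their barcodes. Read counts were normalised to the haploid input and turned into Kd by a linear fit to BCL2-family pairs of known affinity, for each replicate. Mating was done three times.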

Changes read parent residue, position, new residue, counted from the first residue of the VH shown. Every variant below is changed at G26 of the VH (sequential numbering). Kd is apparent (estimated from mating counts) and averaged on the log scale over replicates with a signal. Smaller is tighter. "nd" marks a missing value. The strain was present, yet no cells mated with the target were sequenced in any replicate, which points to weak or no binding. Three control strains display no target. For library AAYL51, 21% of the pairings with them gave a signal, with a median of 34 µM and one signal in twenty below 1.8 µM, so weak values seen in few replicates may be background.

With G26N/G50P the result was 1.8 mM (1 of 3 replicates). Variant G26A/G100I/G102C gave nd (0 of 3 replicates). With G26R/G50T/Y60R the result was nd (0 of 3 replicates). Variant G26Q/G102S showed nd (0 of 3 replicates). With G26M/Y32M/G59N the result was nd (0 of 3 replicates). Variant G26E/T28K/M34I gave nd (0 of 3 replicates). For G26W/T28S/I51P, the assay gave nd (0 of 3 replicates). Variant G26W/M34N/G56Y gave nd (0 of 3 replicates).

Variant G26S/D107G gave 8.4 µM (2 of 3 replicates). Variant G26N/D62H/F106H gave nd (0 of 3 replicates). For G26Y/S52H/G102I, the assay gave nd (0 of 3 replicates). Variant G26V/Y108W showed nd (0 of 3 replicates). With G26D/H35F/G56C the result was nd (0 of 3 replicates). Variant G26P/V64C/G103I gave 18 µM (2 of 3 replicates). With G26K/I51V the result was 4.9 µM (1 of 3 replicates). Variant G26S/G59K/Y60I showed 70 µM (3 of 3 replicates).

Variant G26L/F29R/Y32W gave 80 µM (3 of 3 replicates). For G26V/D62E/S63A, the assay gave nd (0 of 3 replicates). For G26S/S57Q, the assay gave 64 µM (1 of 3 replicates). For G26F/F27S/N54K, the assay gave 240 µM (1 of 3 replicates). Variant G26K/T28C showed nd (0 of 3 replicates). Variant G26K/Y60F/V99P showed 83 µM (3 of 3 replicates). With G26K/S55C the result was 1.2 µM (3 of 3 replicates). With G26M/I51D/S63Q the result was 13 µM (2 of 3 replicates).

For G26R/I58A, the assay gave 160 µM (3 of 3 replicates). For G26L/S52N/G59A, the assay gave nd (0 of 3 replicates). Variant G26K/Y32H/G103C gave 500 µM (1 of 3 replicates). With G26F/S52H/Y108A the result was nd (0 of 3 replicates). For G26P/G59Q/D107P, the assay gave 21 µM (1 of 3 replicates). For G26I/G103V, the assay gave nd (0 of 3 replicates). Variant G26P/F27K/S57E gave 180 µM (2 of 3 replicates). Variant G26C/G104E showed 36 µM (1 of 3 replicates).

Variant G26V/G56Y/F106K showed nd (0 of 3 replicates). Variant G26P/G56V/V99K showed nd (0 of 3 replicates). Variant G26W/G56E gave nd (0 of 3 replicates). Variant G26M/S52E/D107S showed 420 nM (1 of 3 replicates).